Values of other authors as cited in PMC13348789.

Protein sequences, listed by entry. Tags and fused reporters are not part of them. Residues count along the entry.
UniProt P01589, 22-240, chain 1 of 3: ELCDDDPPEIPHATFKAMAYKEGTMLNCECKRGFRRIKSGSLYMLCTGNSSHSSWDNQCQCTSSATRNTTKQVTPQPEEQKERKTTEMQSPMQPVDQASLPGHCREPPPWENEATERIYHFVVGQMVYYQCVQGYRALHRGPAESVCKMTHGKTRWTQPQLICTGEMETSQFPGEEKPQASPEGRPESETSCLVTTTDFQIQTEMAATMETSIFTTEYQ
UniProt P60568, 21-153: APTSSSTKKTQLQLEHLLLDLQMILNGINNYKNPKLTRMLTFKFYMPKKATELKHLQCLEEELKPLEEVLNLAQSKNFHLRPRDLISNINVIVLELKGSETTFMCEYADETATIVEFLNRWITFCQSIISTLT

Molecular target: IL-2Rα/IL-2Rβ/γc trimeric receptor (Homo sapiens) (UniProt P01589)

Kd: 0.01 nM
Substance: IL-2 (from UniProt P60568)
